Experiments:
[1] = molecular target: PAP-cyclin B1 interaction (Homo sapiens, UniProt P14635); experiment: GST-cyclin B1 pull-down assay of PAP binding
HaTCat cells = experiment: DNA content by propidium iodide staining and FACS, HaTCat cells; type: cell-based, human; details: confluent (resting) HaTCat cells
Excerpt: A graphical representation of DNA content of cells as collected by propidium iodide staining and subsequent FACS analysis. G0/G1, S, and G2M phases are depicted of cells either treated or not treated with cell permeable peptides. The percentage of untreated cell in a given phase are in white, PAP's CRM in (SEQ ID NO: 3) black, p21's in gray (SEQ ID NO: 5), scrambled in horizontal stripes (SEQ ID NO: 4), internalization sequence alone in vertical stripes (SEQ ID NO: 2).
(A) PAP's CRM (SEQ ID NO: 3) kills growing HaTCats, but stimulates S-phase entry of stationary HaTCats. The bar graph depicts the fold induction over non-treated cells of sub-G1 DNA content and S-phase DNA content of four different populations of cells. The percentage of cells found S-phase of each population is noted below the bar graph. Sub-G1 DNA content and S-phase DNA content are depicted of cells either treated or not treated with cell permeable peptides. […]
Panel B of FIG. 7 is a graphical representation of DNA content of cells, derived from propidium iodide staining and subsequent the fluorescence-activated cell sorter (FACS) analysis. […]
(§1) After treatment with or without cell membrane permeable peptides (Synpep), cells were trypsinized, centrifuged and washed in PBS. […] The cells were then applied to the fluorescence-activated cell sorter (FACSCalibur; Becton Dickson). […]

Sequences of proteins named here, by UniProt entry; tags and fusion partners are left off.
UniProt P14635, whole entry: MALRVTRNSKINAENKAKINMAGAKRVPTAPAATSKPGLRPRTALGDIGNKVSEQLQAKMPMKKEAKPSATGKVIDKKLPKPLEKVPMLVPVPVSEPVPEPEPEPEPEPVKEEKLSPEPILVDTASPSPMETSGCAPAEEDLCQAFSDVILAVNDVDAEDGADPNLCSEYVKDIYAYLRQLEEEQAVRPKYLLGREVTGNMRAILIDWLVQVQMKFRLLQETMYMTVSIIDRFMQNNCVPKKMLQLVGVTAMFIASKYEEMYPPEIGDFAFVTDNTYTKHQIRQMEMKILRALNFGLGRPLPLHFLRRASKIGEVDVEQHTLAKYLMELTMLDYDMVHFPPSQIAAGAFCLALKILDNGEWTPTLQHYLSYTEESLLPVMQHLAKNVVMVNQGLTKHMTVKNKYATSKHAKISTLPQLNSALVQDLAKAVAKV

MEFs = experiment: DNA content by propidium iodide staining and FACS, mouse embryo fibroblasts; type: cell-based; details: sub-confluent MEFs, one hour; SEQ ID NO:3 1.87-30 μM, controls 30 μM
Description: (A) PAP's CRM stimulates both the percentage of cells with sub-G1 DNA content and S-phase DNA content in a dose dependent manner. DNA content as measured by FACS analysis is graphically represented.
(B) PAP's CRM stimulates cell death over time. The percentage of cells with a sub-G1 DNA content with or without treatment with 30 μM of PAP's CRM (SEQ ID NO: 3) for varying lengths of time is shown.
(C) The percents of cells with G0/G1 (in black), S (in gray), and G2/M (in white) DNA contents of the same population of cells in (B) are depicted.
Panel A depicts the MEF's response to a concentration curve of SEQ ID NO:3. […]
To further study the MEF's reactions to the membrane permeable peptide, SEQ ID NO:3, and to determine if the increase in S-phase depicts a stimulation or inhibition of proliferation, treatment with one concentration was followed at varying time points. Sub-confluent MEFs were treated with 30 μM SEQ ID NO:3, harvested at different time points, and their DNA content was analyzed by propidium iodide staining and subsequent FACS analysis. FIG. 10 panel B depicts the percentage of death initiated over time, as measured by sub-G1 DNA content. […]
as §1

Row | Substance | association of purified bacterial his-PAP I with GST-cyclin B1 ([1]; 2, 10 and 20 μM peptide, Western blot with anti-PAP antibody) | S-phase population of cells (HaTCat cells) | percentage of cells with S-phase DNA content (MEFs) | percentage of cells with sub-G1 DNA content (MEFs) | interaction between PAP and cyclin B1 ([1]; 40 and 70 μM peptide, in vitro translated 35S-labeled PAP I) | PAP I binding to cyclin B1 ([1]; lower concentrations of peptide (9 and 18 μM), in vitro translated 35S-labeled PAP I)
1 | SEQ ID NO:5: 8-mer peptide spanning the CRM of p21 (a cdk inhibitor); fused to penetratin in cell tests (KACRRLFG; listed as Homo Sapiens) [reference compound] | no effect | not observed | No effects | No effects | – | –
2 | SKIRILVG (poly(A) polymerase cyclin recognition motif) [SEQ ID NO:1] | – | – | – | – | disruption of the interaction | dramatic stimulation of binding

Source: patent publication US6696546B1, “Peptide that kills growing but not stationary cells” (The Trustees of Columbia University in the City of New York, priority 2000, dated 2004)
